Apparent affinities of Ab-91 variants for a coronavirus HR2 peptide

Binding partner: SARS-CoV-2 spike HR2 peptide, sequence PDVDLGDISGINAS.

Each scFv is VL, a 15-residue (Gly4Ser)3 linker, VH, as in the parent Ab-91, and differs from it in the CDRs of the heavy chain only.
VL: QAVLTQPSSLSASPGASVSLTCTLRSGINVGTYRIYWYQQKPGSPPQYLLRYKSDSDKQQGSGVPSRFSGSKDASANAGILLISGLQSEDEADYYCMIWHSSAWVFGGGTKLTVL
VH: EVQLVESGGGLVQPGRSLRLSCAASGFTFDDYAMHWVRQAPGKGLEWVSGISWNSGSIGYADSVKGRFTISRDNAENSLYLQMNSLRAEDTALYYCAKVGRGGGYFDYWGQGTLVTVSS

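The parent was found by panning a naive human phage display library on the peptide. The library (AAYL51) carries one to three amino acid substitutions per variant, with no insertions or deletions. AlphaSeq pools MATa yeast showing the antibodies with MATalpha yeast showing the peptide. After mating in shaken culture at 30 °C for 16 h, diploids were selected and their barcode pairs sequenced. Scores were corrected for input abundance and mapped to Kd with protein pairs of known affinity run in the same pool. There are three technical replicates.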

Positions count from residue 1 of the parent VH; V64L puts L in place of V.
Every variant below is changed at V99 of the VH (sequential numbering).
Numbers give log10(Kd / nM), so 0 is 1 nM and 3 is 1 µM. Smaller is tighter.
Averages over replicates are reported, and they cover detected replicates only.
Where no diploid with the target was found in any replicate, the entry reads "no signal": below detection, most likely a poor binder, though not proof of it.
As a blank, each scFv also met three strains without target: over library AAYL51, 21% of these pairings were detected, typically at 4.54 and seldom below 3.26. The control count says in how many pairings with the empty strains this scFv gave a signal.

| changes | log10 Kd (nM), mean | seen in | signal with controls |
|---|---|---|---|
| V64L V99F F106H | 1.12 | 3 of 3 | 0 of 9 |
| G59S V64R V99K | 4.76 | 1 of 3 | 1 of 9 |
| M34Y K65D V99Q | 4.74 | 2 of 3 | 3 of 9 |
| M34F V99R G104H | 2.06 | 3 of 3 | 6 of 9 |
| G56W V99S Y105D | 5.14 | 2 of 3 | 3 of 9 |
| D30A V99F F106L | 3.58 | 1 of 3 | 0 of 9 |
| S55A Y60D V99P | no signal | 0 of 3 | 0 of 9 |
| W53T V99F F106T | 1.23 | 3 of 3 | 5 of 9 |
| F29E V99I G104Q | no signal | 0 of 3 | 0 of 9 |
| F29L V99T G102W | 2.40 | 3 of 3 | 2 of 9 |
| G59E V99A G103C | 2.61 | 3 of 3 | 3 of 9 |
| G50Q V99G F106D | no signal | 0 of 3 | 0 of 9 |
| D62T V99Y F106Q | no signal | 0 of 3 | 0 of 9 |
| I51N Y60N V99H | no signal | 0 of 3 | 0 of 9 |
| W53Y K65N V99Q | 4.12 | 3 of 3 | 2 of 9 |
| W53D V99P | 3.88 | 1 of 3 | 1 of 9 |
| V99P G100S | 5.43 | 2 of 3 | 2 of 9 |
| F29T D62C V99M | 4.89 | 2 of 3 | 4 of 9 |
| I58M V99N R101A | no signal | 0 of 3 | 1 of 9 |
| S63G V99E | 1.07 | 3 of 3 | 0 of 9 |
| A33T M34I V99A | no signal | 0 of 3 | 0 of 9 |
| G50T G59C V99D | no signal | 0 of 3 | 1 of 9 |
| G56S V99S G102P | no signal | 0 of 3 | 2 of 9 |
| F29Q G59Y V99F | no signal | 0 of 3 | 1 of 9 |
| D30W V99Y | 4.16 | 1 of 3 | 1 of 9 |
| F27C F29D V99P | no signal | 0 of 3 | 2 of 9 |
| H35S V99S Y108T | no signal | 0 of 3 | 0 of 9 |
| V99L Y108V | 3.26 | 3 of 3 | 4 of 9 |
| F29H S57L V99I | no signal | 0 of 3 | 0 of 9 |
| W53H V99H | no signal | 0 of 3 | 1 of 9 |
| Y32W V99W | 3.75 | 3 of 3 | 2 of 9 |
| T28F V99P | no signal | 0 of 3 | 0 of 9 |
| G50C V99G G102D | 4.51 | 1 of 3 | 1 of 9 |
| F29K V99H R101L | 4.08 | 1 of 3 | 4 of 9 |
| A33P V99L D107A | 4.75 | 1 of 3 | 0 of 9 |
| V99A G102T Y105T | no signal | 0 of 3 | 0 of 9 |
| G50I I51Y V99S | no signal | 0 of 3 | 0 of 9 |
| G56N K65E V99R | 0.90 | 3 of 3 | 7 of 9 |
| V64C V99S Y108T | no signal | 0 of 3 | 0 of 9 |
| S52I V99N | 5.56 | 1 of 3 | 1 of 9 |
| V99L | no signal | 0 of 3 | 0 of 9 |
| Y32A S57E V99F | no signal | 0 of 3 | 0 of 9 |
| F27T V99C R101L | no signal | 0 of 3 | 0 of 9 |
| V99R Y105W | 3.24 | 3 of 3 | 3 of 9 |
| D30M G56P V99W | no signal | 0 of 3 | 4 of 9 |
| S55I V64R V99Y | 5.35 | 1 of 3 | 2 of 9 |
| A61R V99W | no signal | 0 of 3 | 2 of 9 |
| V99W D107L Y108A | no signal | 0 of 3 | 1 of 9 |
| N54G A61E V99D | no signal | 0 of 3 | 0 of 9 |
| G56F S57V V99P | 4.87 | 3 of 3 | 3 of 9 |
| S57W V99R Y108L | no signal | 0 of 3 | 0 of 9 |
| V99N D107H | 5.86 | 1 of 3 | 2 of 9 |
| D31E V99W Y105E | 4.91 | 3 of 3 | 4 of 9 |
| V99S G104A | no signal | 0 of 3 | 0 of 9 |
| D62I V99N | no signal | 0 of 3 | 0 of 9 |
| G50D G56H V99F | no signal | 0 of 3 | 6 of 9 |
| F27H V99P Y105G | 5.19 | 1 of 3 | 1 of 9 |
| M34C G59V V99S | no signal | 0 of 3 | 0 of 9 |
| W53R N54E V99D | 1.27 | 3 of 3 | 5 of 9 |
| D31N V99W | no signal | 0 of 3 | 1 of 9 |
| M34K V99G | 5.55 | 2 of 3 | 2 of 9 |
| S55N V99N G102N | 5.09 | 1 of 3 | 1 of 9 |
| D31L V99T | 3.19 | 3 of 3 | 6 of 9 |
| S55K A61R V99P | 4.22 | 2 of 3 | 3 of 9 |
| M34L H35W V99F | 5.29 | 1 of 3 | 5 of 9 |
| M34R D62H V99S | no signal | 0 of 3 | 2 of 9 |
| A61G V99H | no signal | 0 of 3 | 0 of 9 |
| H35D I58L V99L | 5.16 | 2 of 3 | 8 of 9 |
| I51W V99P G104W | no signal | 0 of 3 | 0 of 9 |
| D31S A61S V99W | 4.81 | 3 of 3 | 3 of 9 |
| W53S N54M V99G | 1.85 | 3 of 3 | 0 of 9 |
| M34A I51G V99S | no signal | 0 of 3 | 2 of 9 |
| D62W V99D | no signal | 0 of 3 | 0 of 9 |
| D30R D62G V99T | 1.15 | 3 of 3 | 1 of 9 |
| K65N V99T G104V | no signal | 0 of 3 | 1 of 9 |
| V99P | no signal | 0 of 3 | 0 of 9 |

The last 12 entries again:

changes	log10 Kd (nM), mean	seen in	signal with controls
M34L H35W V99F	5.29	1 of 3	5 of 9
M34R D62H V99S	no signal	0 of 3	2 of 9
A61G V99H	no signal	0 of 3	0 of 9
H35D I58L V99L	5.16	2 of 3	8 of 9
I51W V99P G104W	no signal	0 of 3	0 of 9
D31S A61S V99W	4.81	3 of 3	3 of 9
W53S N54M V99G	1.85	3 of 3	0 of 9
M34A I51G V99S	no signal	0 of 3	2 of 9
D62W V99D	no signal	0 of 3	0 of 9
D30R D62G V99T	1.15	3 of 3	1 of 9
K65N V99T G104V	no signal	0 of 3	1 of 9
V99P	no signal	0 of 3	0 of 9

The measurements come from Engelhart et al. 2022 (doi:10.1038/s41597-022-01779-4) through the FLAb antibody collection.